Our source for the IC50 values is ChEMBL document CHEMBL4028801, “A multifactorial approach to hepatobiliary transporter assessment enables improved therapeutic compound development” (Toxicol Sci, 2013).

The chains behind the UniProt entries cited, without tags or fusion partners. Where a name states a change or a piece, a line headed by the entry shows the natural chain unless it says otherwise.
UniProt O15439: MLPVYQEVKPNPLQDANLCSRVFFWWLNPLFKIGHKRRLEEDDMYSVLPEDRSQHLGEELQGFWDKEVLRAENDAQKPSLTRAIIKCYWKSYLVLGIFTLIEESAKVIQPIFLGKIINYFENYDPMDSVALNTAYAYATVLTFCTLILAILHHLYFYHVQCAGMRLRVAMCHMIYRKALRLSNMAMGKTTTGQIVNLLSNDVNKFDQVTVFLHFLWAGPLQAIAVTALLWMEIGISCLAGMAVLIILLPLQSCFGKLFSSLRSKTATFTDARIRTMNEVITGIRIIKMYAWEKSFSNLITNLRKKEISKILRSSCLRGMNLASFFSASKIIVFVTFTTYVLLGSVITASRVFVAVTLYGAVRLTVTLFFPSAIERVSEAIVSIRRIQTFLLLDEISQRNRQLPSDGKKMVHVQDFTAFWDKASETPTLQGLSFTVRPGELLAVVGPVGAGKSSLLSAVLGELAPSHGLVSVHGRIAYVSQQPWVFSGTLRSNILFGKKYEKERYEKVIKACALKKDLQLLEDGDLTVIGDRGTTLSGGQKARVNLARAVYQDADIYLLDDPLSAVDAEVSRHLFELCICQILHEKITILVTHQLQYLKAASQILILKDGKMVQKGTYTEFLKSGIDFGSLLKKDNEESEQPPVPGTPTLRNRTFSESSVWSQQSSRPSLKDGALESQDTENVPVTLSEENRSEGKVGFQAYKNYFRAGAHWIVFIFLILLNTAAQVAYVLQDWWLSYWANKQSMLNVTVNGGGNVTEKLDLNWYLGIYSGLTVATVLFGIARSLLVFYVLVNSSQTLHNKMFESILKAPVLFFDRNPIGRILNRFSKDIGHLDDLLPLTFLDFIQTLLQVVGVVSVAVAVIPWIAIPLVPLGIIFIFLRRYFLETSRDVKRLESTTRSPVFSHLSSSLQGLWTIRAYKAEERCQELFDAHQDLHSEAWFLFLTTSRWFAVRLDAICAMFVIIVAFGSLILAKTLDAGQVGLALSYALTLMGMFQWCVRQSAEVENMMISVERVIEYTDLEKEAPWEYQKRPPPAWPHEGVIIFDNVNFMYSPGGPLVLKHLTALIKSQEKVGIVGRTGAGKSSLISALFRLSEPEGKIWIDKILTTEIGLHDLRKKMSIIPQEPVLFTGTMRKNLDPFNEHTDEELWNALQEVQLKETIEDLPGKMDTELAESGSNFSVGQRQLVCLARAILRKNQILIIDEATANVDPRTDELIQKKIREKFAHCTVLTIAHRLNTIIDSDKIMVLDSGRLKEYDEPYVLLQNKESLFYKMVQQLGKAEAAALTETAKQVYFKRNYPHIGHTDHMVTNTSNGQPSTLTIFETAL

The experiment has as its target ATP-binding cassette sub-family C member 4 (Homo sapiens, UniProt O15439). It is filed as ADME, cell-based.

`CN(C)C(=O)CCSC(SCCC(=O)O)c1cccc(/C=C/c2ccc3ccc(Cl)cc3n2)c1` (stereo unspecified) [MK-571] showed an IC50 of 6 µM.
